Patent US20100144743A1, “COMPOSITIONS AND METHODS FOR INHIBITION OF TYROSINE KINASES” (BOARD OF REGENTS, THE UNIVERSITY OF TEXAS SYSTEM, priority 2006, published 2010)
Where two headings read alike, the source gives them in different places.

Legend:
C6#4 cells = experiment: WST-1 cell viability (proliferation) test in C6#4 cells
HIF-1 = HIF-1 GFP/DsRFP expression (G/R) in C6#4 cells stimulated by CoCl2; format: cell-based

In the case of `N[C@@H](Cc1ccc([N+]([O-])(CCCl)CCCl)cc1)C(=O)O`, the EC50 (C6#4 cells; read-out: WST-1 (EC-50) 1 ex, experiment 1) is reported as 80.2 µM, the EC50 (C6#4 cells; read-out: WST-1 (EC-50) 2 ex, experiment 2) is reported as 83.5 µM and the EC50 (C6#4 cells; read-out: WST-1 (EC-50) 3 ex, experiment 3) is reported as 101 µM. For the same compound, the EC50 (C6#4 cells; read-out: WST-1 (EC-50) Mean, mean, Table 4) was 88.2 µM, the EC50 (C6#4 cells; read-out: WST-1 (EC-50), 24 h exposure, WST-1 4 h, Table 2) was 88.2 µM and the “G/R:WST-1 Ratio Mean” value (HIF-1; mean of 3 experiments, Table 3) was 2.1. For the same compound, the “G/R:WST-1 Ratio Mean” value (HIF-1; mean, Table 4) was 2.133, the EC50 (HIF-1; read-out: G/R (EC-50) 1 ex, experiment 1) was 27.9 µM and the EC50 (HIF-1; read-out: G/R (EC-50) 2 ex, experiment 2) was 43.3 µM. For the same compound, the EC50 (HIF-1; read-out: G/R (EC-50) 3 ex, experiment 3) was 64.4 µM, the EC50 (HIF-1; read-out: G/R (EC-50), 24 h exposure, GFP normalized to RFP, Table 2) was 45.2 µM and the EC50 (HIF-1; read-out: G/R (REC-50) Mean, mean, Table 4) was 45.2 µM.
